Key:
GST-prIL16 PDZ domain 1 = target: T1, GST-prIL16 PDZ domain 1 (human); assay: modified ELISA, GST-PDZ captured by anti-GST, biotinylated MUC1 peptide titrated, HRP-streptavidin
T1 construct: also called Pril-16 d1; PRIL-16 d1

Chains of the proteins cited; added tags and fusions are not shown. Lines headed by an entry give the natural chain unless they say otherwise; changes in a name come on top. A line that says so, or that is headed by a name, gives the form on record, which may keep a tag or linker.
UniProt Q6P0Q8, other isoform, or with tags, fused parts or gaps: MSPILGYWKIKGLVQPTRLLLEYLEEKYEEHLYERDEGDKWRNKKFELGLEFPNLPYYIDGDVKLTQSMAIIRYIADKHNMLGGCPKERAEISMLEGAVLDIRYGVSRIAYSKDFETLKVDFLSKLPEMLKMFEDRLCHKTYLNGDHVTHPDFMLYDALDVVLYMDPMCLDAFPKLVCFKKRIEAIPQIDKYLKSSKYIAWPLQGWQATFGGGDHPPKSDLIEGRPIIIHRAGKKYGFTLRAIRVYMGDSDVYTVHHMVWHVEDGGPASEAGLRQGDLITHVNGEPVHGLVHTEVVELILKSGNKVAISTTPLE
UniProt Q9H190: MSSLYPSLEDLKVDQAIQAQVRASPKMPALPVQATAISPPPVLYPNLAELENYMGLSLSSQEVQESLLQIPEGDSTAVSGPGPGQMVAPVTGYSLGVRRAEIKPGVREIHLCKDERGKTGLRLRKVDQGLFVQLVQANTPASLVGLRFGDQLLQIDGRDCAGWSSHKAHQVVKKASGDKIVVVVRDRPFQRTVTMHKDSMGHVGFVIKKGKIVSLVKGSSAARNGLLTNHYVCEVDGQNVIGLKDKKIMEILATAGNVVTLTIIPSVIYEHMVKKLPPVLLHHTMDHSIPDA

[1] = target: T2, GST-KIAA1526 PDZ domain 1 (human); assay: as above
T2 construct: also called KIAA1526 d1

GST-AIPC PDZ domain 1 = target: T3, GST-AIPC PDZ domain 1 (human); assay: as above
T3 construct: also called AIPC1

GST-SIP1 PDZ domain 1 = target: T4, GST-SIP1 PDZ domain 1 (human); assay: as above
T4 construct: also called SIP1 d1

GST-ZO-1 PDZ domain 2 = target: T5, GST-ZO-1 PDZ domain 2 (human); assay: as above
T5 construct: also called ZO-1 d2; ZO1 d2

GST-NSP PDZ domain = target: T6, GST-NSP PDZ domain (human); assay: as above
T6 construct: also called Novel Serine Protease

GST-MAST d2 PDZ domain = target: T7, GST-MAST d2 PDZ domain (human, UniProt Q6P0Q8 1104-1192); assay: as above
T7 construct: domain: PDZ; also called MAST2

GST-SITAC 18 PDZ domain = GST-SITAC 18 PDZ domain (human, UniProt Q9H190); assay: as above
[2] = target: T8, GST-RIM2 (KIAA0751) PDZ domain 1 (human); assay: as above
T8 construct: Construct RIM2, PDZ domain 1-pGEX-3X; vector sites BamH1/EcoR1, insert sites BglII/MfeI; also called GST-RIM2 PDZ domain; RIM3 (as printed once)

[3] = target: T8, GST-RIM2 (KIAA0751) PDZ domain 1; assay: modified ELISA, plated GST-RIM2 PDZ domain, biotinylated peptide 0.001-10 µM, curve fit; Relative EC50

B1: MUC1 C-terminus peptide NGGSSLSYTNPAVAATSANL (SEQ ID NO: 96) (peptide)
peptide: NGGSSLSYTNPAVAATSANL
modifications: biotinylated (position not given)
notes: also called C-terminus of MUC1; MUC1 peptide
GST-prIL16 PDZ domain 1
  EC50: 41 nM
[1]
  EC50: 51 nM
GST-AIPC PDZ domain 1
  EC50: 14 nM
GST-SIP1 PDZ domain 1
  EC50: 11 nM
GST-ZO-1 PDZ domain 2
  EC50: 19 nM
GST-NSP PDZ domain
  EC50: 27 nM
GST-MAST d2 PDZ domain
  EC50: 39 nM
GST-SITAC 18 PDZ domain
  EC50: 26 nM
[2]
  EC50: 16 nM

B2: YGRKKRRQRRRAVAATSANL (SEQ ID NO: 134) (peptide)
peptide: YGRKKRRQRRRAVAATSANL
modifications: biotinylated (position not given)
notes: also called TAT-MUC1; biotinylated TAT-MUC1 derived peptide
[3]
  EC50: 65 nM

From US20080090770A1 (published 2008)
